Protein sequences, listed by entry. Tags and fused reporters are not part of them. Lines headed by an entry give the natural chain unless they say otherwise; changes in a name come on top.
UniProt Q9UGN5: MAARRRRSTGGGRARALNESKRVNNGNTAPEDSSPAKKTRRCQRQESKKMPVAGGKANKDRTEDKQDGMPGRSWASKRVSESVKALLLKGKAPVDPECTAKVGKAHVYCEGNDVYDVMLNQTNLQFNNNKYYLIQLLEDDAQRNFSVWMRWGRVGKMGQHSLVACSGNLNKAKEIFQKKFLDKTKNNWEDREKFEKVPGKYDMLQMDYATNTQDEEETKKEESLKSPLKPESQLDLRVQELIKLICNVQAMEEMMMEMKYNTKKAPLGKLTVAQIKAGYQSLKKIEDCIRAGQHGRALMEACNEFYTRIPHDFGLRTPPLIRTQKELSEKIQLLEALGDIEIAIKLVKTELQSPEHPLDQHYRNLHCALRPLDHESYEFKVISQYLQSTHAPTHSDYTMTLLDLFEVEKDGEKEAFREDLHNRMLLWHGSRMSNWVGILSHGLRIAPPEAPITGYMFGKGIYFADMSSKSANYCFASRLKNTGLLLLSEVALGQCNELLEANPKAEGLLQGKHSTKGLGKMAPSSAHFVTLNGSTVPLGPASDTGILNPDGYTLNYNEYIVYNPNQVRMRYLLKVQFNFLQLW

According to US20250082630A1, “METHODS OF TREATING BRAIN TUMOURS AND NEUROBLASTOMAS” (AstraZeneca AB, priority 2021, published 2025):

Target: PARP2 (Homo sapiens (Human), UniProt Q9UGN5)
Details: data not shown

## CNC(=O)c1ccc(N2CCN(Cc3ccc4nc(C)c(=O)[nH]c4c3F)CC2)c(F)n1 [Example 20, 6-fluoro-5-[4-[(5-fluoro-2-methyl-3-oxo-4H-quinoxalin-6-yl)methyl]piperazin-1-yl]-N-methyl-pyridine-2-carboxamide]
  PARP2 trapping: sparing PARP2
